Source: patent US20030215462A1, “Use of UGT inhibitors to increase bioavailability” (priority 2001, published 2003)

How the values were obtained:
UGT1A1 = molecular target: T1, UGT1A1 (Homo sapiens, UniProt P22309); experiment: Substrate glucuronidation by recombinant UGT1A1; settings: 2ME2 50 μM
T1 sequence (P22309 26-533): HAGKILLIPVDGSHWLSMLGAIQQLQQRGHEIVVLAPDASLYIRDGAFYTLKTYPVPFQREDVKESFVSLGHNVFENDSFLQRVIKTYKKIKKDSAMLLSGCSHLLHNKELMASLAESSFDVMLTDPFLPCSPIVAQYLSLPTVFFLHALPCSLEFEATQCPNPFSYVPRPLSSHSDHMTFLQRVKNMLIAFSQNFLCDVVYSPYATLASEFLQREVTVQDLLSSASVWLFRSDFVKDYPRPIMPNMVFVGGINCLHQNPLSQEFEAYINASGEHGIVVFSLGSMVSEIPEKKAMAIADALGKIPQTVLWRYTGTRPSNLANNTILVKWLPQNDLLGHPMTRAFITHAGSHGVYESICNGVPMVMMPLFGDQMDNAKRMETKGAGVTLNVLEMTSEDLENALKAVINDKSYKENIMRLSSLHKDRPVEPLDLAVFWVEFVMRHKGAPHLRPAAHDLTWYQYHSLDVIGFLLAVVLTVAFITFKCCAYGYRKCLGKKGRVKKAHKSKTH

UGT1A4 = molecular target: T2, UGT1A4 (Homo sapiens, UniProt P22310); experiment: Substrate glucuronidation by recombinant UGT1A4; settings: UGT1A4 Supersomes; 2ME2 50 μM
T2 sequence (P22310 29-534): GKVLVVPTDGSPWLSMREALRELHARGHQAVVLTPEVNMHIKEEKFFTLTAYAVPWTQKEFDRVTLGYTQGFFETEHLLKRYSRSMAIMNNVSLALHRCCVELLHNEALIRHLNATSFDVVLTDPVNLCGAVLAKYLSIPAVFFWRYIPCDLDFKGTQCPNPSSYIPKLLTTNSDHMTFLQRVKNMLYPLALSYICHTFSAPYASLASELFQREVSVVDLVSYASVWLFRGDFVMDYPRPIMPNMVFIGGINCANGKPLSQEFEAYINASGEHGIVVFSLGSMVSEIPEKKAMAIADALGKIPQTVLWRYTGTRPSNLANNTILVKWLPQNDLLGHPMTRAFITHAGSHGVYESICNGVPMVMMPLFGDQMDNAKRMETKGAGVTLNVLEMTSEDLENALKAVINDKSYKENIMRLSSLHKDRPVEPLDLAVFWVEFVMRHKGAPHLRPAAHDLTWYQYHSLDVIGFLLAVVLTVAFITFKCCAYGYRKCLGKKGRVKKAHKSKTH

UGT1A7 = molecular target: T3, UGT1A7 (Homo sapiens, UniProt Q9HAW7); experiment: Substrate glucuronidation by recombinant UGT1A7; settings: UGT1A7 Bacculosomes; 2ME2 50 μM
T3 sequence (Q9HAW7 26-530): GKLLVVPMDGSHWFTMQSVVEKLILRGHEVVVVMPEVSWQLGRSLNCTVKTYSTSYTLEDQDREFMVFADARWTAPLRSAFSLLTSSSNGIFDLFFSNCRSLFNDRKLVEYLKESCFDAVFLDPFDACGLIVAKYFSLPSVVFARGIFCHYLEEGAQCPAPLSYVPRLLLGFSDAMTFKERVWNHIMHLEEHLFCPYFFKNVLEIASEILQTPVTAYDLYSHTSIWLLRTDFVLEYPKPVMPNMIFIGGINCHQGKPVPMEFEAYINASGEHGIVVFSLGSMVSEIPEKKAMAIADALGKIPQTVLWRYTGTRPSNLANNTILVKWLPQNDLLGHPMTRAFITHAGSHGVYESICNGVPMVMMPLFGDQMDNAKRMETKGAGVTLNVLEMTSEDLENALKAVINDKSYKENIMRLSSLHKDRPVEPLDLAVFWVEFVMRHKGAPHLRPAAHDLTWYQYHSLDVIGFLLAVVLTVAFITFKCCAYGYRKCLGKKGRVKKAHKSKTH

UGT2B7 = molecular target: T4, UGT2B7 (Homo sapiens, UniProt P16662); experiment: Substrate glucuronidation by recombinant UGT2B7; settings: UGT2B7 Supersomes; 2ME2 50 μM
T4 sequence (P16662 24-529): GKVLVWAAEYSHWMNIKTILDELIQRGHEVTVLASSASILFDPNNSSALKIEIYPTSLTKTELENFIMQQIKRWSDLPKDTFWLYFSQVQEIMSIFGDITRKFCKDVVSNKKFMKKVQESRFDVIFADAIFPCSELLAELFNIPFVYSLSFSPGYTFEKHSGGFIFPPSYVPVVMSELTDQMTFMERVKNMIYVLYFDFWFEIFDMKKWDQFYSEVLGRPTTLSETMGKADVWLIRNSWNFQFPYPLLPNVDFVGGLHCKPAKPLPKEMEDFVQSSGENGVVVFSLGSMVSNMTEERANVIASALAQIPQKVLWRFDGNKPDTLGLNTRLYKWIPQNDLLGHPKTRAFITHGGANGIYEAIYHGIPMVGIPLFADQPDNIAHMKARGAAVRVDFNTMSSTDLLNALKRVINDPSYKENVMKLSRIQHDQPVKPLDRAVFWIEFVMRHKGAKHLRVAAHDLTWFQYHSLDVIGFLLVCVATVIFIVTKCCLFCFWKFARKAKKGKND

UGT2B15 = molecular target: T5, UGT2B15 (Homo sapiens, UniProt P54855); experiment: Substrate glucuronidation by recombinant UGT2B15; settings: UGT2B15 Supersomes; 2ME2 50 μM
T5 sequence (P54855 24-530): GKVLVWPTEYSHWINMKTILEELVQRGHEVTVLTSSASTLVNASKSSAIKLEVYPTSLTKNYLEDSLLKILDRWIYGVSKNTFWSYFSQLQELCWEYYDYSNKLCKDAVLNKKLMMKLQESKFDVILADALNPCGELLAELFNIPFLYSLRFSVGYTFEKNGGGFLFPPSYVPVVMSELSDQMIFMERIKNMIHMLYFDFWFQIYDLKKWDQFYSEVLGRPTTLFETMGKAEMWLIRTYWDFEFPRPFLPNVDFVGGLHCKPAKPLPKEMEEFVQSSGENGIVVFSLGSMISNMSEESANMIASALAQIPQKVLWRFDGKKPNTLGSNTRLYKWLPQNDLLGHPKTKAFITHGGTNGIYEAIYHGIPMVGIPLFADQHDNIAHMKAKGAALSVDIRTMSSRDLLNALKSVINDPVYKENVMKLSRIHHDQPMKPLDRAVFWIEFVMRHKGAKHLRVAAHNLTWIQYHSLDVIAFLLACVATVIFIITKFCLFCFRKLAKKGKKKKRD

COc1cc2c(cc1O)CC[C@@H]1[C@@H]2CC[C@]2(C)[C@@H](O)CC[C@@H]12 [2ME2, 2-Methoxyestradiol]
rate of 2ME2 loss (UGT1A1; UGT1A1): 1406 ± 156 pmol/min/mg
relative metabolite level MG1 (UGT1A1; UGT1A1 Bacculosomes): 46 ± 1
relative metabolite level MG2 (UGT1A1; UGT1A1 Bacculosomes): <LOQ
ratio MG1/MG2 (UGT1A1; UGT1A1 Supersomes): 68
relative metabolite level MG1 (UGT1A1; UGT1A1 Supersomes): 90 ± 5
relative metabolite level MG2 (UGT1A1; UGT1A1 Supersomes): 1.3 ± 0.1
relative metabolite level MG1 (UGT1A4): <LOQ
relative metabolite level MG2 (UGT1A4): 6.1 ± 0.1
relative metabolite level MG1 (UGT1A7): 2.6 ± 0.1
relative metabolite level MG2 (UGT1A7): <LOQ
relative metabolite level MG1 (UGT2B7): <LOQ
relative metabolite level MG2 (UGT2B7): 5.9 ± 0.2
relative metabolite level MG1 (UGT2B15): <LOQ
relative metabolite level MG2 (UGT2B15): 1.9 ± 0.1
